GIV-Gai inh: inhibitors of GIV peptide binding to Galpha-i3, primary screen, biochemical, fluorescence polarization, FITC-GIV GBA peptide, rat Galphai3 | 90 min; stronger effect = lower value; scaled: aluminum fluoride 0%, vehicle 100% | AID 1224905, 2016 | 210,000 compounds, 0.42% hits | percent of control (FP), % (concentration not given with the values) | Guanine nucleotide-binding protein G(i) subunit alpha-3 (Rattus norvegicus), P08753;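 active = replicate mean at 85% of control or lower, very high polarization wells dropped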;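 note: wells of about 15 µL received 100 nL stock; the first replicate is given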
HCMV UL50-53 inh: inhibitors of HCMV UL50-UL53 interaction, biochemical, HTRF; HCMV UL50-UL53 nuclear egress complex (human cytomegalovirus); normalized percent inhibition; inhibition, % (test concentration not listed); hit rate 0.15% among 190,000; in the data active means inhibition above about 27%, passing the limit was not always enough
GIV Gai FP conf: inhibitors of GIV peptide binding to Galpha-i3, confirmation, biochemical, fluorescence polarization, FITC-GIV peptide, rat Galphai3. AID 1259350, 2017. fluorescence polarization, mP at 100 µM. stronger effect = lower value. shares compounds with GIV-Gai inh. hit rate 38% among 580;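 active means inhibition score of 15 or more, meaning 100 minus mean polarization as percent of control over three replicates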
GIV-Gai AS conf: inhibitors of GIV binding to Galpha-i3, confirmation, orthogonal assay for GIV-Galpha-i inhibitor project, biochemical, AlphaScreen, His-GIV, GST-Galphai3 | shares compounds with GIV-Gai inh | purified proteins, 90 min; stronger effect = lower value | AlphaScreen counts at 100 µM | hit rate 39% among 580;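 active means inhibition score at or above a set limit, where the score is 100 minus the three-replicate mean percent of control signal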
* hit, by the source's call; x = no result given. Shown are actives, neighbours in structure and some others; about 0.46% of the full set was active somewhere.

The chains behind the UniProt entries cited, without tags or fusion partners.
Guanine nucleotide-binding protein G(i) subunit alpha-3 (Rattus norvegicus), P08753, UniProt P08753, whole entry, looked up: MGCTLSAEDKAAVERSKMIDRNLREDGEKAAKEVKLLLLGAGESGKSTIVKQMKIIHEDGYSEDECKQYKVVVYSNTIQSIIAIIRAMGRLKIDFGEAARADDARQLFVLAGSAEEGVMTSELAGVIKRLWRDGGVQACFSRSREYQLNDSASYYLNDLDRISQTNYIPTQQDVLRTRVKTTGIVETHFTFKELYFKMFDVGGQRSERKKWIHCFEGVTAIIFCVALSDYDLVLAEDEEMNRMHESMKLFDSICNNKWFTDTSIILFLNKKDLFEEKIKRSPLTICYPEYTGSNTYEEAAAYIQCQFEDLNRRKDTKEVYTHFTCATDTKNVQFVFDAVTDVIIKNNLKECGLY

SMILES | GIV-Gai inh | HCMV UL50-53 inh | others
CN1C(=O)C(=Cc2coc3ccccc3c2=O)C(=O)N(C)C1=O | 103 | 39*
CC(c1ccccc1)N1C(=O)NC(=O)/C(=C/c2coc3ccccc3c2=O)C1=O (stereo not given) | 105 | x
COc1cc(C=C2C(=O)NC(=O)NC2=O)ccc1OCc1ccc(C(=O)O)cc1 | 111 | 20
O=C1NC(=O)C(=Cc2ccc(OCc3ccc(C(=O)O)cc3)c(Br)c2)C(=O)N1 | 101 | 63*
O=[N+]([O-])c1ccccc1SC1CC2C(c3ccccc3)Nc3ccc(Cl)cc3C2C1Cl (stereo not given) | 112 | x
Cc1cc(/C=C2\C(=O)NC(=O)N(c3ccc(F)cc3)C2=O)c(C)n1-c1ccc(C(=O)O)cc1 | 102 | -18
Cc1ccc(N2C(=O)NC(=O)/C(=C\c3cc(C)n(-c4cc(C(=O)O)cc(C(=O)O)c4)c3C)C2=O)cc1 | 106 | 32*
O=C(OCc1cc(=O)n2ccsc2n1)C(O)(c1ccccc1)c1ccccc1 | x | -23
O=C1NC(=O)C(=Cc2cccc(OCCOc3ccc([N+](=O)[O-])cc3)c2)C(=O)N1 | 112 | 37*
O=C1NC(=O)C(=Cc2ccc(OCCOc3ccc([N+](=O)[O-])cc3)cc2)C(=O)N1 | 101 | -31
COc1ccc(NC(=O)N2CCC3(C2)C(=O)N(C)c2ccc(OC)cc23)c(OC)c1 (stereo not given) | 108 | x
COc1cccc(C=C2C(=O)NC(=O)NC2=O)c1 | x | 14
CN1/C(=C\C=C2C(=O)NC(=O)NC2=O)C(C)(C)c2ccccc21 | 29* | -78
COC(=O)C1=C(C)OC(N)=C(C(=O)OC(C)C)C12C(=O)Nc1ccccc12 (stereo not given) | 101 | -17
CC(=O)OCc1ccc(C=C(C#N)C#N)o1 | 94 | -10
CC1(C)CC(=O)C(C2(O)C(=O)NC(=O)NC2=O)=C(O)C1 | 99 | 63*
COc1ccc2c(c1)C1(CCN(S(=O)(=O)c3ccc4c(c3)CC(=O)N4C)C1)C(=O)N2C (stereo not given) | 101 | x
Cc1[nH]c2ccccc2c1/C=C/c1nc2ccccc2c(=O)n1-c1ccccc1 | -70* | 7
Cc1ccccc1-n1c(/C=C/c2c(C)[nH]c3ccccc23)nc2ccccc2c1=O | 113 | -12
N#Cc1cccs1 | x | -5

Some of these compounds in order of SMILES length, low to high.
SMILES | GIV-Gai inh | HCMV UL50-53 inh | others
N#Cc1cccs1 | x | -5
COc1cccc(C=C2C(=O)NC(=O)NC2=O)c1 | x | 14
CN1C(=O)C(=Cc2coc3ccccc3c2=O)C(=O)N(C)C1=O | 103 | 39*
CN1/C(=C\C=C2C(=O)NC(=O)NC2=O)C(C)(C)c2ccccc21 | 29* | -78
CC(c1ccccc1)N1C(=O)NC(=O)/C(=C/c2coc3ccccc3c2=O)C1=O (stereo not given) | 105 | x
COc1ccc(NC(=O)N2CCC3(C2)C(=O)N(C)c2ccc(OC)cc23)c(OC)c1 (stereo not given) | 108 | x
O=C1NC(=O)C(=Cc2cccc(OCCOc3ccc([N+](=O)[O-])cc3)c2)C(=O)N1 | 112 | 37*

(further entries)
SMILES | GIV-Gai inh | HCMV UL50-53 inh | others
CN1C(=O)NC(=O)/C(=C\C=C\c2ccco2)C1=O | 95 | x
O=C1NC(=S)NC(=O)C1=C/C=C/c1ccco1 | 110 | 78*
O=C1[C@@H]2CCCN2[C@@H](c2cccnc2)N1c1nccs1 | 99 | -27
CCCCc1ncc(CNCCc2c(C)[nH]c3ccc(OC)cc23)[nH]1 | 21* | -13
Cc1[nH]c2ccccc2c1CCNCc1ccco1 | x | 8
COc1ccc2c(c1)C1(CCN(C(=O)C(C)C)C1)C(=O)N2 (stereo not given) | 108 | x
Cc1c(C#N)c2nc3ccccc3n2c(=O)/c1=C\Nc1ccc(N2CCOCC2)c(Cl)c1 | 57* | x
Cc1cc(Nc2ccc(N3CCCC3)cc2)n2c(nc3ccccc32)c1C#N | 101 | -41
C[C@]12CCC(O)CC1=CCC1C2CC[C@]2(C)C(=O)CCC12 (stereo not given in full) | x | -62
CC(C)n1[nH]c(=O)c2c1NC(=O)CSC2c1ccc(Br)cc1 (stereo not given) | 103 | 18
COc1ccc(CN2C(=O)NC(=O)/C(=C\c3cccc(OC)c3OC)C2=O)cc1 | 98 | 78*
COc1ccc(-n2c(C)cc(/C=C3/C(=O)NC(=O)N(Cc4ccco4)C3=O)c2C)cc1 | 94 | 1
COc1ccc(C2c3cccn3-c3ccccc3CN2C(=O)Nc2cc(C)cc(C)c2)cc1 (stereo not given) | 102 | 0
COc1cc2c(no[n+]2[O-])n2nnnc12 | 80* | -96 | GIV Gai FP conf=68;GIV-Gai AS conf=11443*
CCOC(=O)C1=C(NC(=O)Cc2ccccc2)c2ccccc2CC12CCCC2 | 120 | x
CCCCn1c(C)c(C(=O)OCC)c2cc(OC(=O)c3ccc(F)cc3)c3ccccc3c21 | 103 | -5
CN1C(=O)C(=Cc2ccc(O)cc2)C(=O)N(C)C1=O | 97 | 8
Cc1nc(S(=O)(=O)N2CCCCC2c2cccnc2)cn1C (stereo not given) | 85* | -4 | GIV Gai FP conf=58;GIV-Gai AS conf=42642
Nc1ccc(S(=O)(=O)N2CCCCC2c2cccnc2)cc1 (stereo not given) | 103 | -16
Cc1ccccc1NC1=NCCS1 | x | -29
c1ccc2c(NC3=NCCS3)cccc2c1 | 83* | 18 | GIV Gai FP conf=61;GIV-Gai AS conf=35407*
OCCCNc1c2c(nc3ccccc13)CCCC2 | 105 | 8
COCCNC(=O)Cn1cc(C=C2C(=O)N(C)C(=O)N(C)C2=O)c2ccccc21 | 96 | -6 | GIV Gai FP conf=72;GIV-Gai AS conf=40853
CN1C(=O)C(=Cc2cn(CC(=O)N3CCCC3)c3ccccc23)C(=O)N(C)C1=O | 103 | x
CC12CC[C@H]3[C@@H](CCC4(O)C[C@H](O)CCC34/C=N/NC(=O)c3cncc(Br)c3)C1(O)CCC2C1=CC(=O)OC1 (stereo not given in full) | 105 | x
N#CC(C#N)=Cc1sc2ccccc2c1Cl | 105 | -13
COc1cc(/C=C2\C(=O)NC(=O)N(c3ccccc3)C2=O)c([N+](=O)[O-])cc1OC | 111 | x
COc1cc(C=C2C(=O)NC(=O)NC2=O)ccc1OS(=O)(=O)c1ccccc1[N+](=O)[O-] | 71* | 51* | GIV Gai FP conf=58;GIV-Gai AS conf=54298
Cc1cc(C)c2oc(-c3ccc(N/C=c4\c(C)c(C#N)c5nc6ccccc6n5c4=O)cc3)nc2c1 | 73* | 3 | GIV Gai FP conf=80;GIV-Gai AS conf=44971
COc1c(Cl)cc(Cl)cc1-c1c(C#N)c(N)n2c(nc3ccccc32)c1C#N | 102 | x
CCS(=O)(=O)Nc1cccc(C(=C2CCCCC2)c2cnc[nH]2)c1 | 87 | -25 | GIV Gai FP conf=77;GIV-Gai AS conf=6784*
CCOc1cccc(NC(c2ccccc2)P2(=S)OCC(C)(C)CO2)c1 (stereo not given) | 120 | x
CN1C(=O)C(=C/C=C/c2ccccc2)C(=O)N(C)C1=O | 81* | 9 | GIV Gai FP conf=74;GIV-Gai AS conf=6725*
C=CCN1C(=O)NC(=O)/C(=C/C=C/c2ccccc2)C1=O | 155 | 4
CSc1nc2cccc(F)c2c(=O)n1-c1ccc(C)c(C)c1 | 105 | -34
CN1CCCN(C(=O)c2cccnc2Cl)CC1 | x | -17
COC(=O)CN1C(=O)C2(C(C(=O)OC)=C(N)Oc3c2c(=O)oc2ccccc32)c2ccccc21 (stereo not given) | 98 | -22
CCc1ccc(N2C(=O)/C(=C/c3ccc(OCC(=O)O)c(Br)c3)C(=O)NC2=S)cc1 | 57* | -30 | GIV Gai FP conf=34*;GIV-Gai AS conf=3342*
C=CCN1C(=O)NC(=O)/C(=C/c2ccc(OCC(=O)O)c(OCC)c2)C1=O | 97 | 4

High-throughput results (PubChem BioAssay)
